The assay concerns the target T1, tissue factor (TF) extracellular domains (UniProt P13726 33-251, limits assumed).
T1 construct: extracellular domain; also called purified tissue factor
Put plainly: SPR, Ab captured on anti-Fc, antigen injected. (In general: Surface plasmon resonance follows binding to a sensor surface in real time, without labels.)

Chains of the proteins cited; added tags and fusions are not shown. Residues count along the entry.
UniProt P13726, 33-251 limits assumed: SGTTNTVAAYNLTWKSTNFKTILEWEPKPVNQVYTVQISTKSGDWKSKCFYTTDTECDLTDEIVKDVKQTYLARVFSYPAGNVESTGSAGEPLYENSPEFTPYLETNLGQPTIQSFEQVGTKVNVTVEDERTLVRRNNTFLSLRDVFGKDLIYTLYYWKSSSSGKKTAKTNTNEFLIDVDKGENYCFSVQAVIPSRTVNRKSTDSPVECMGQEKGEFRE

B1: D3H44/pertuzumab bispecific antibody, SMCA design 313*-337* (bispecific antibody)
chain 1: not shown
chain 2: not shown
chain 3: not shown
chain 4: DIQMTQSPSSLSASVGDRVTITCKASQDVSIGVAWYQQKPGKAWKLLIYSASYRYTGVPSRFSGSGSGTDFTLTISSLQPEDFATYYCQQYYIYPYTFGQGTKVEIKRTVAAPSVFIFPPSDEQLKSGTASVVCLLNNFYPREAKVQWKVDNALQSGNSQESVTEQDSKDSTYSLSSTLTLSKADYEKHKVYACEVTHQGLSSPVTKSFNRGEC
With B1, the Kd (in general, the concentration at which binding is half-saturated) stood at 0.9 nM.

B2: D3H44/pertuzumab bispecific antibody, SMCA design # 329*-330* (other placement of the Fc mutations) (bispecific antibody)
chain 1: not shown
chain 2: not shown
chain 3: not shown
chain 4: DIQMTQSPSSLSASVGDRVTITCKASQDVSIGVAWYQQKPGKAPKLLIYSASYRYTGVPSRFSGSGSGTDFTLTISSLQPEDFATYYCQQYYIYPYTFGQGTKVEIKRTVAAPSVAIFPPSDEQLKSGTAKVVCALNNFYPREAKVQWKVDNALQSGNSQESVTEQDSKDSTYSLSSTLTLSKADYEKHKVYACEVTHQGLSSPVTKSFNRGEC
In the case of B2, the Kd came to 0.04 nM.

The record behind these values is patent US20220227840A1 (published 2022).
